AlphaSeq binding of Ab-14 light chain variants to a spike HR2 peptide

From the AlphaSeq antibody data of Engelhart et al. 2022 (doi:10.1038/s41597-022-01779-4), copy in the FLAb collection.

Target: peptide PDVDLGDISGINAS, taken from heptad repeat 2 (HR2) of SARS-CoV-2 spike.

Parent: Ab-14, a human scFv built as VH, the linker GGGGSGGGGSGGGGS, VL. Only the CDRs of the light chain vary.
VH: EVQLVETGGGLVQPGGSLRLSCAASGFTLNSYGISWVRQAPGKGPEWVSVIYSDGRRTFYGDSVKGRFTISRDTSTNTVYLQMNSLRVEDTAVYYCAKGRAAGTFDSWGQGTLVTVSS
VL: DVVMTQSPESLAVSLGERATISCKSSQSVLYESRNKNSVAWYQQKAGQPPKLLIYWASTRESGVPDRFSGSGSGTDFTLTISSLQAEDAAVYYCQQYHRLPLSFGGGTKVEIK

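The starting antibody came from a phage panning campaign against this peptide. In library AAYL50, one, two or three CDR residues were substituted; doubles and triples were drawn at random. The scFvs were displayed on barcoded MATa yeast, the peptide on MATalpha yeast. Mating (16 h, 30 °C) was followed by selection of diploids and sequencing of their barcodes. Scores were corrected for input abundance and mapped to Kd with protein pairs of known affinity run in the same pool. There are three technical replicates.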

Substitutions are numbered in sequence along the VL above, starting at 1 (not Kabat). All variants listed here change R60 of the VL, counted from its first residue. The read-out is the apparent dissociation constant on a log10 scale (nM): the lower, the stronger. Averages over replicates are reported, and they cover detected replicates only. "nd" means that the variant was in the library but no mating with the target was seen in that replicate; the authors take this as a sign of poor binding, and no number exists. Empty control strains, which show no peptide, gave a signal in 18% of pairings with library AAYL50; the median was 4.19 and 95% of these signals were weaker than 2.99. No background was subtracted. The control count says in how many pairings with the empty strains this scFv gave a signal. For reference, the parent read 0.65 as the reference entry and 1.68 as a member of this library.

- L30D/A57Y/R60W = nd, nd, nd (controls 0 of 9)
- W56A/R60F/R99M = 4.58, nd, nd (controls 1 of 9)
- S25L/R60L/R99E = 0.60, 0.63, 0.52 (mean 0.58; controls 0 of 9)
- S26P/R60A/S62T = 3.60, nd, nd (controls 1 of 9)
- R60P/Q95P/L102V = 1.71, 1.77, 1.86 (mean 1.78; controls 1 of 9)
- V29R/S33G/R60C = nd, nd, nd (controls 1 of 9)
- S38F/S58Y/R60I = 3.98, 4.86, nd (mean 4.42; controls 1 of 9)
- K24M/A40E/R60G = nd, nd, nd (controls 0 of 9)
- A57Y/R60V = nd, nd, nd (controls 0 of 9)
- T59S/R60E = nd, nd, nd (controls 2 of 9)
- Q27P/S38F/R60L = nd, nd, nd (controls 0 of 9)
- R60N/S103E = nd, nd, nd (controls 0 of 9)
- V29C/R60M/S62Y = nd, nd, nd (controls 0 of 9)
- V29W/R60E/E61H = nd, nd, 4.43 (controls 0 of 9)
- N37L/R60K/Y97C = 2.61, 2.74, 2.98 (mean 2.78; controls 1 of 9)
- A40N/R60V/Q95P = nd, 5.15, 4.02 (mean 4.58; controls 1 of 9)
- S58A/T59H/R60I = nd, nd, nd (controls 0 of 9)
- Q27W/R60N/L102V = 4.69, nd, nd (controls 5 of 9)
- S33T/W56E/R60P = 0.08, 0.54, 0.29 (mean 0.30; controls 0 of 9)
- A57P/T59E/R60T = nd, nd, nd (controls 0 of 9)
- S26H/V29K/R60A = nd, nd, nd (controls 2 of 9)
- E32W/N37V/R60K = nd, 3.98, nd (controls 1 of 9)
- Q27T/R60F/Q95E = nd, 5.84, 4.42 (mean 5.13; controls 7 of 9)
- S25M/R60D = 2.97, 3.79, nd (mean 3.38; controls 0 of 9)
- R60Q/Y97H = nd, nd, nd (controls 1 of 9)
- L30M/R60F = 4.48, 3.25, nd (mean 3.86; controls 1 of 9)
- N35P/R60D/L100S = nd, nd, nd (controls 1 of 9)
- S33C/R60Y/L102D = 4.24, nd, nd (controls 0 of 9)
- N37R/R60G/Y97T = nd, nd, nd (controls 0 of 9)
- N35F/S58F/R60S = 5.42, nd, nd (controls 2 of 9)
- K36P/R60Y/E61H = nd, nd, nd (controls 1 of 9)
- R60G/S62Y/Q96L = nd, nd, nd (controls 0 of 9)
- R60D/P101M = nd, nd, nd (controls 0 of 9)
- E32T/S33Y/R60I = nd, 3.91, nd (controls 0 of 9)
- S25Q/R60G/S103G = 0.68, 0.94, 0.67 (mean 0.76; controls 3 of 9)
- K24E/R60F/Y97V = 5.61, 3.38, 3.85 (mean 4.28; controls 2 of 9)
- N35H/R60I/R99S = 4.72, 4.70, nd (mean 4.71; controls 4 of 9)
- S26E/R60D/L102N = nd, nd, 3.65 (controls 0 of 9)
- V39I/W56T/R60G = nd, 3.32, nd (controls 1 of 9)
- Q27G/R60L/R99C = 6.72, 3.99, nd (mean 5.35; controls 5 of 9)
- T59I/R60K/H98D = 1.41, 1.53, 1.43 (mean 1.45; controls 5 of 9)
- S28L/V29K/R60Q = nd, nd, nd (controls 0 of 9)
- V29A/R60V/H98N = 3.47, 3.61, 3.30 (mean 3.46; controls 7 of 9)
- V29C/R60K/Q95R = 2.88, 2.70, 3.12 (mean 2.90; controls 5 of 9)
- R60E/S62D = nd, nd, nd (controls 5 of 9)
- L30R/R60D = nd, nd, nd (controls 2 of 9)
- S38W/V39H/R60M = nd, nd, 5.36 (controls 3 of 9)

For reference, 7 entries of the list once more:

| changes | replicates, log10 nM | mean log10 Kd (nM) | empty controls |
|---|---|---|---|
| N35P/R60D/L100S | nd, nd, nd | nd | 1 of 9 |
| K24M/A40E/R60G | nd, nd, nd | nd | 0 of 9 |
| S26E/R60D/L102N | nd, nd, 3.65 | 3.65 | 0 of 9 |
| L30D/A57Y/R60W | nd, nd, nd | nd | 0 of 9 |
| Q27G/R60L/R99C | 6.72, 3.99, nd | 5.35 | 5 of 9 |
| Q27P/S38F/R60L | nd, nd, nd | nd | 0 of 9 |
| T59S/R60E | nd, nd, nd | nd | 2 of 9 |